Measured values from patent US4968690A (priority 1989, dated 1990).

Columns and labels:
[1] = system: AdoHcy hydrolase in HL-60 cells; conditions: for formation of neplanocylmethionine (NepMet): neplanocin A 10^-6 M, other analogs 10^-5 M
[2] = system: AdoHcy-ase in HT-29 cells; conditions: 24 hours
[3] = system: AdoHcy-ase in HT-29 cells; assay: cells; conditions: Homo sapiens, HT-29, 24 h, read-out: drug concentration at which increase in AdoHcy begins

Compound | formation of neplanocylmethionine (NepMet) [1] | formation of methionine metabolite (NepMet) [2] | accumulation of AdoHcy (in words) ([1]; 10^-6 M) | AdoHcy concentration ([2]; 1 to 100M drug) | minimal effective concentration [3]
3-deazaaristeromycin | not formed | did not form a similar metabolite |  |  | 
Nc1ncnc2c1ncn2[C@@H]1C=C(CO)[C@@H](O)[C@H]1O [Neplanocin A, 9-[(1'R,2'S,3'R)-4-Hydroxymethyl-2',3'-dihydroxy-4-cyclopenten-1'-yl]adenine, reference compound] | even greater amount of the anabolite, neplanocylmethionine | also observed | equivalent accumulation of AdoHcy | 80 pmoles/10^6 cells | 0.1 µM
